Source: BindingDB's records for doi:10.1007/bf00506193 (1984)
pKi: −log10 of the molar value. Values joined by “and” are separate entries in the source; they are usually repeats but may differ in a detail not shown here. Identical values can stand only once.

Molecular target: T1, Alpha-1A adrenergic receptor (Rattus norvegicus, UniProt P43140)
T1 sequence (P43140 whole entry): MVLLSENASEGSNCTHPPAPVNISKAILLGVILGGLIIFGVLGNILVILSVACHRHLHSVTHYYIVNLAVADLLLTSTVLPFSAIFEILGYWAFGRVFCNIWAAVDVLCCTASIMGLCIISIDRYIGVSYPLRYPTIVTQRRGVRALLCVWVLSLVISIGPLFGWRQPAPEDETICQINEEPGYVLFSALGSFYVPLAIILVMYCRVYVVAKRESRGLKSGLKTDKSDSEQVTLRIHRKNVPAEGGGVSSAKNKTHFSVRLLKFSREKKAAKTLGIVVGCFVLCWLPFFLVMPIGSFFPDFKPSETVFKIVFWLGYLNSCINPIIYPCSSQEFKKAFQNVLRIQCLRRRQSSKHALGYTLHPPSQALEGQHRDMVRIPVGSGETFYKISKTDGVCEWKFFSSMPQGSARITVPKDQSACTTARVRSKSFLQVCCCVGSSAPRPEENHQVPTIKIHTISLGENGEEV

pKi: 6.63 and 6.64
SMILES: COC(=O)[C@@H]1[C@H]2C[C@H]3c4[nH]c5ccccc5c4CCN3C[C@@H]2CC[C@@H]1O [yohimbic acid methyl ester]
